Antibody variant affinities, Ab-14 light chain, assay B

Target peptide (SARS-CoV-2 spike, HR2 region): PDVDLGDISGINAS

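The parent was found by panning a naive human phage display library on the peptide. This is the validation round: designs drawn from the data on random variants, tested in the same kind of assay. Several design methods are mixed in this list. Affinity was read by AlphaSeq, a pooled yeast mating assay with surface-displayed partners. After mating in shaken culture at 30 °C for 16 h, diploids were selected and their barcode pairs sequenced. Scores were corrected for input abundance and mapped to Kd with protein pairs of known affinity run in the same pool. Each pool was mated in six replicate cultures.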

Parent: Ab-14, a human scFv built as VH, a (GGGGS)3 linker, VL. Only the CDRs of the light chain vary.
VH: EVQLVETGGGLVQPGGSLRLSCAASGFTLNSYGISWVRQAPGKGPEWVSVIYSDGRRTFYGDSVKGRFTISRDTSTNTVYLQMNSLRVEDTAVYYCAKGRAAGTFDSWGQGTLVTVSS
VL: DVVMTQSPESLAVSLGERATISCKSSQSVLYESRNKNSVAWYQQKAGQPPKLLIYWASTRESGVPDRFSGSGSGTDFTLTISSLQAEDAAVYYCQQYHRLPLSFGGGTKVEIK

Changes read parent residue, position, new residue, counted from the first residue of the VL shown.
This list holds designs with at most six substitutions.
Scale: log10 of Kd in nM, estimated from mating counts; low values are strong binders.
A mean of the replicates is given; it leaves out those without a signal.
A pair that was not seen in any replicate is written "nd"; this usually means weak binding, but a binder can also be missed.
The authors' rule: three or more of the six replicates give a measured affinity, fewer mean a poor binder.

Variant K24H S25V S26L W56H S62D R99Q gave 0.07 (6 of 6 replicates; controls 1 of 18). With S25L L30D S38N W56E the result was -0.70 (6 of 6 replicates; controls 0 of 18). Variant S25L E32Q S38N W56N S58Q E61M gave -0.28 (6 of 6 replicates; controls 1 of 18). Variant S25H Q27D showed 1.73 (4 of 6 replicates; controls 0 of 18). For S25V S38N W56N, the assay gave 0.10 (6 of 6 replicates; controls 2 of 18). For S28K H98M, the assay gave 1.92 (4 of 6 replicates; controls 0 of 18). With S25F V29K W56N T59Q the result was -0.10 (6 of 6 replicates; controls 2 of 18).

With Q27H K36Q V39H the result was nd (0 of 6 replicates; controls 0 of 18). With W56K L100I the result was 2.90 (5 of 6 replicates; controls 1 of 18). Variant S26H S28G S33F V39I W56D gave 0.54 (6 of 6 replicates; controls 1 of 18). With N35T S58M Q95Y L100F the result was nd (0 of 6 replicates; controls 3 of 18). For L30D Y31F W56E, the assay gave 0.46 (6 of 6 replicates; controls 2 of 18). For S25V S26K V29Q L30A, the assay gave 1.48 (6 of 6 replicates; controls 1 of 18). For S25L S26Q V29W S38N W56H, the assay gave 0.16 (6 of 6 replicates; controls 2 of 18).

Variant Q27I V29W K36E W56E S62Q gave -0.29 (6 of 6 replicates; controls 1 of 18). For S26G S28G K36W W56G S62Q, the assay gave 0.14 (6 of 6 replicates; controls 1 of 18). For S25L V29T E32D R34Q W56H H98K, the assay gave 0.01 (6 of 6 replicates; controls 1 of 18). For V29E L30W, the assay gave nd (0 of 6 replicates; controls 0 of 18). Variant S25Q S26Q W56D E61S showed -0.12 (6 of 6 replicates; controls 2 of 18). Variant S25L V29W W56N E61C showed 0.21 (6 of 6 replicates; controls 2 of 18). Variant Y31G W56D S62Q showed -0.34 (6 of 6 replicates; controls 0 of 18).

With S25V V29Y S33D W56N the result was 0.25 (6 of 6 replicates; controls 1 of 18). Variant V29W Y31E H98C gave 2.26 (2 of 6 replicates; controls 0 of 18). Variant L30M Y31G S33E W56A S62V showed 0.41 (6 of 6 replicates; controls 2 of 18). For S25V R34W Q96T H98F, the assay gave nd (0 of 6 replicates; controls 0 of 18). Variant L30P N35S W56S showed 0.75 (6 of 6 replicates; controls 1 of 18). Variant S25L S26M V29M K36T W56H T59H gave 0.44 (6 of 6 replicates; controls 1 of 18). With W56A L100T the result was 0.80 (6 of 6 replicates; controls 3 of 18).

For S25W Y31G S33Q W56D, the assay gave -0.17 (6 of 6 replicates; controls 0 of 18). For S25F N35C W56N S58V S62T, the assay gave 0.53 (6 of 6 replicates; controls 0 of 18). Variant Y31V E32Q W56D gave 0.12 (6 of 6 replicates; controls 4 of 18).

The first 4 variants above that were never detected:

| changes | log10 Kd (nM), mean | seen in | empty controls |
|---|---|---|---|
| Q27H K36Q V39H | nd | 0 of 6 | 0 of 18 |
| N35T S58M Q95Y L100F | nd | 0 of 6 | 3 of 18 |
| V29E L30W | nd | 0 of 6 | 0 of 18 |
| S25V R34W Q96T H98F | nd | 0 of 6 | 0 of 18 |

Values of this round are not directly comparable with the first-round values of the same sequences.
As a blank, each scFv also met three strains without target: over all light chain designs, 4% of these pairings were detected, typically at 2.64 and seldom below 1.59. The control count says in how many pairings with the empty strains this scFv gave a signal.
The parent sequence was in this pool as ten entries: three were never detected, three once, and four in most replicates, with averages from 0.34 to 2.37.

Values reported by Li et al. 2023, doi:10.1038/s41467-023-39022-2 (FLAb copy).